Laboratory results as given in publication PMC8958505, “Discovery of Potential Neuroprotective Agents against Paclitaxel-Induced Peripheral Neuropathy” (Journal of Medicinal Chemistry, 2022).
Counter-ions that a name gives are not always drawn.

Tests used:
[1] = tested on: sciatic nerve fibers; test: Ultrastructure evaluation of the sciatic nerve (TEM); type: in vivo, mouse
Source text: Sciatic nerves were isolated from mice after drug treatment and behavioral tests to examine the ultrastructure of nerve fibers. […] To evaluate the integrity of myelin, we calculated the G-ratio (axon perimeter/myelin perimeter) in different treatment groups. Because the symptoms of PIPN mostly manifest with sensory impairment,[28] we roughly classified nerve fibers into larger fibers (diameter > 5 μm) and small fibers (diameter < 5 μm) depending on the type of sensory information conveyed.[29] Large fibers with greater than 5 μm diameter carry information related to proprioception, touch, and pressure. In contrast, small fibers with less than 5 μm diameter carry information related to temperature and pain.
Sciatic nerve samples from mice from each treatment group were isolated after the last time point of mouse behavioral tests. Fixation of sciatic nerves with 4% glutaraldehyde and post fixation with 1% osmium tetroxide solution at 4 °C were performed. […] Transmission electron microscopy (H7650, Hitachi) was used to observe the ultrastructure in the cross section of the sciatic nerves.

[2] = tested on: proinflammatory cytokines and chemokines; test: Systemic mouse cytokine and chemokine detection; type: in vivo; conditions: pretreatment; day 14 after first paclitaxel injection
Method: Samples were obtained from C57BL/6J female mice before and 14 days after the first course of treatment. The blood samples were obtained from the submandibular vein and then centrifuged at 3000 rpm for 15 min at 4 °C to yield plasma. Mouse cytokines/chemokines were quantified using Magnetic Bead 32-Multiplex Panel (Millipore, MCYTMAG-70K-PX32). Statistical significance was analyzed using two-way ANOVA, with p < 0.05 considered significant.

[3] = tested on: ICR mice; test: Acute single-dose toxicity study; type: in vivo; conditions: for survival / survival rate: saline
Method: An acute single-dose toxicity study was conducted in male ICR mice. 7-week-old ICR male mice were intravenous bolus administered with CN016 dissolved in 0.9% sodium chloride solution by using dose escalation procedure to approach the toxicity of CN016. The treatment groups included 50, 100, 300, and 500 mg/kg dose levels and three to six mice for each group. The injection volume was calculated based on the individual body weight. […] Animal body weight was measured once daily during the 14 day observation period of the study. All animals were euthanized with 100% CO2 at the end of the study.

[4] = biological target: T1, CYP 2D6 (Homo sapiens, UniProt P10635); test: Cytochrome P450 testing, CYP 2D6; type: in vitro ADME; conditions: dextromethorphan O-demethylation; read-out: Concentration of inhibition (IC50), CYP 2D6
T1 construct: host or cells: baculovirus-infected insect cells (supersomes)
Source text: Cytochrome P450 testing of CN016
The effects of CN016 on the activity of six specific human liver cytochrome P450 isozymes (CYP 1A2, 2C9, 2C19, 2D6, 2E1, 3A4) expressed in baculovirus-infected insect cell supersomes were studied. The reactions used to measure the activity of these enzymes were phenacetin O-deethylation (1A2), diclofenac 4-hydroxylation (2C9), mephenytoin 4-hydroxylation (2C19), dextromethorphan O-demethylation (2D6), chlorzoxazone 6-hydroxylation (2E1) and testosterone 6-hydroxylation (3A4).
Furafylline, sulfaphenazole, tranylcypromine, quinidine, diethyldithiocarbamate and azamulin were used as reference inhibitors of these enzymes. Incubation mixtures containing no CN016 or reference inhibitors were used as controls. The tested result […]
Table S4. Result of Cytochrome P450 testing of CN016

[5] = tested on: panel of selected 67 commercially available receptors and enzymes; test: 67 off-target study (LeadProfilingScreen), whole panel; type: binding; conditions: 10 μM
Source text: LeadProfilingScreen (Total # of Assays: 67)
To evaluate, in LeadProfilingScreen, the activity of test compound CN168 (Panlabs # 1251879). […]
Summary of Significant Results
Biochemical assay results are presented as the percent inhibition of specific binding or activity throughout the report.
All other results are expressed in terms of that assay's quantitation method.
• For primary assays, only the lowest concentration with a significant response judged by the assays' criteria, is […]
• Where applicable, either the secondary assay results with the lowest dose/concentration meeting the significance […]
• Unless otherwise requested, primary screening in duplicate with quantitative data (e.g., IC50 ± SEM, Ki ± SEM and nH) are shown where applicable for individual requested assays. In screening packages, primary screening in duplicate with semi-quantitative data (e.g., estimated IC50, Ki and nH) are shown where applicable (concentration range of 4 log units); available secondary functional assays are carried out ([…]) and MEC or MIC determined only if active in primary assays >50% at 1 log unit below initial test concentration. […]

[6] = biological target: Adenosine A1 (Homo sapiens, UniProt P30542); test: LeadProfilingScreen: Adenosine A1; type: binding
[7] = biological target: Adenosine A2A (Homo sapiens, UniProt P29274); test: LeadProfilingScreen: Adenosine A2A; type: binding
[8] = biological target: Adrenergic α1B (Homo sapiens, UniProt P35368); test: LeadProfilingScreen: Adrenergic α1B; type: binding
[9] = biological target: Androgen (Testosterone) (Homo sapiens, UniProt P10275); test: LeadProfilingScreen: Androgen (Testosterone); type: binding
[10] = biological target: Calcium Channel N-Type (Rattus norvegicus, UniProt Q02294); test: LeadProfilingScreen: Calcium Channel N-Type; type: binding
[11] = biological target: Glutamate, NMDA, Glycine (Rattus norvegicus, UniProt P35439); test: LeadProfilingScreen: Glutamate, NMDA, Glycine; type: binding
[12] = biological target: Neuropeptide Y Y1 (Homo sapiens, UniProt P25929); test: LeadProfilingScreen: Neuropeptide Y Y1; type: binding
[13] = biological target: Opiate κ (OP2, KOP) (Homo sapiens, UniProt P41145); test: LeadProfilingScreen: Opiate κ (OP2, KOP); type: binding
[14] = biological target: Platelet Activating Factor (PAF) (Homo sapiens, UniProt P25105); test: LeadProfilingScreen: Platelet Activating Factor (PAF); type: binding
[15] = tested on: Nicotinic Acetylcholine; test: 67 off-target study: Nicotinic Acetylcholine (as named in Table S5); type: binding; conditions: 10 μM; item as named in Table S5

Which results are given for O=P(O)(O)CCN1CCC(Nc2cc(N3CCOCC3)nc(NCc3cn(CCCO)nn3)n2)CC1 [CN016, {2-[4-(2-{[1-(3-Hydroxy-propyl)-1H-[1,2,3]triazol-4-ylmethyl]-amino}-6-morpholin-4-yl-pyrimidin-4-ylamino)-piperidin-1-yl]-ethyl}-phosphonic Acid Hydrobromide Salt]?
myelinated fiber density of sciatic nerve (restoration of fiber loss) ([1]; dose-dependent, particularly at 20 mg/kg): significantly restored; integrity of large fibers (diameter > 5 μm) of sciatic nerve ([1]; paclitaxel with pretreated CN016 5, 10 and 20 mg/kg): did not affect the integrity of large fibers; G-ratio in small fibers (diameter < 5 μm) of sciatic nerve ([1]; pretreated, particularly at 10 or 20 mg/kg, paclitaxel-treated mice): could rescue the observed axonal damage; proportion of atypical mitochondria in sciatic nerve ([1]; pretreatment, paclitaxel-treated mice): significantly decreased; proinflammatory cytokines and chemokines in plasma [2]: significant decrease; survival ([3]; 50 mg/kg IV): 3/3; survival rate ([3]; 50 mg/kg IV): 100%; survival ([3]; 100 mg/kg IV): 6/6; survival rate ([3]; 100 mg/kg IV): 100%; survival ([3]; 300 mg/kg IV): 3/3; survival rate ([3]; 300 mg/kg IV): 100%; survival ([3]; 500 mg/kg IV): 3/3; survival rate ([3]; 500 mg/kg IV): 100%; maximum tolerance dose (MTD) ([3]; intravenous, ICR mice): > 500 mg/kg; IC50 [4]: > 100 µM; Significant responses (≥ 50% inhibition or stimulation) in the primary assays [5]: No significant results noted; inhibitory activity for each tested item of the 67 panel [5]: < 20%; inhibition at 10 µM [6]: -9%; inhibition at 10 µM [7]: 5%; inhibition at 10 µM [8]: 14%; inhibition at 10 µM [9]: 6%; inhibition at 10 µM [10]: 1%; inhibition at 10 µM [11]: -5%; inhibition at 10 µM [12]: -4%; inhibition at 10 µM [13]: 3%; inhibition at 10 µM [14]: -6%; Inhibition (%), Nicotinic Acetylcholine [15]: -6%
